## Antibody variant affinities, Ab-14 heavy chain, assay B

Source: Li et al. 2023 (doi:10.1038/s41467-023-39022-2), MIT Lincoln Laboratory and A-Alpha Bio; data file from the FLAb repository.

Antigen: PDVDLGDISGINAS, a 14-residue peptide of the SARS-CoV-2 spike HR2 region.

The variants keep the light chain, the linker and the frameworks of Ab-14 (scFv order VH, a 15-residue (Gly4Ser)3 linker, VL).
VH: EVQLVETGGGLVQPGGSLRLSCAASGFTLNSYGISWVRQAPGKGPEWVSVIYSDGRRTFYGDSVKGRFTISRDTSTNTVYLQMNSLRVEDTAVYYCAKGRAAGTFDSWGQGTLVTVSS
VL: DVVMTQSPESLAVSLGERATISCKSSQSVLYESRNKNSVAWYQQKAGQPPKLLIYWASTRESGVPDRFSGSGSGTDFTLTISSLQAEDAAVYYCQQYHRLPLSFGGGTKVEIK

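The starting antibody came from a phage panning campaign against this peptide. This is the validation round: designs drawn from the data on random variants, tested in the same kind of assay. Several design methods are mixed in this list. The scFvs were displayed on barcoded MATa yeast, the peptide on MATalpha yeast. After mating in shaken culture at 30 °C for 16 h, diploids were selected and their barcode pairs sequenced. A regression on co-assayed BCL2-family reference pairs converts the normalised counts of each replicate to an apparent Kd. The assay was run in six technical replicates.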

Each variant is given by its three heavy chain CDRs, as the data file delimits them; those of the parent are GFTLNSYGIS, VIYSDGRRTFYGDSVK, GRAAGTFDS.
This list holds designs with more than six substitutions.
The Kd shown is the geometric mean over detected replicates; a lower Kd is a better binder.
A pair that was not seen in any replicate is written "nd"; this usually means weak binding, but a binder can also be missed.
Empty control strains, which show no peptide, gave a signal in 1% of pairings with all heavy chain designs; the median was 120 nM and 95% of these signals were weaker than 7.0 nM. No background was subtracted. For each scFv, signals with the empty controls are counted beside the result.
The authors' rule: three or more of the six replicates give a measured affinity, fewer mean a poor binder.
The range of this assay differs from that of the first round, and the authors advise against merging the two.

* GFDLEDYGIS, VIYADGRRTQYADSVK, GENAGTFDL = 140 nM (5 of 6 replicates; controls 1 of 18)
* GFDLNEYGIS, VIYADGLRTSYSDSVK, GQLAGTFDQ = 260 pM (6 of 6 replicates; controls 0 of 18)
* GFDLNEYGIS, VIYADGQRTAYADSVK, GKSAGTFDS = 640 pM (6 of 6 replicates; controls 0 of 18)
* GFDLDEYGIS, VIYADGMRTFYADSVK, GTNAGTFDV = 290 pM (6 of 6 replicates; controls 1 of 18)
* GFDLNEYGIS, VIYADGRRTFYSDNVK, GTVAGTFDT = 140 pM (6 of 6 replicates; controls 0 of 18)
* GFDVNEYGIS, VIYADGSRVAILESVK, GKIAGTFFV = nd (0 of 6 replicates; controls 0 of 18)
* GFDLNEYGIS, VIYADGKRTAYVDSVK, GETAGTFDV = nd (0 of 6 replicates; controls 0 of 18)
* GFDLNEYGIS, VIYADGKRTAYADDVK, GEVAGTFDL = 440 pM (6 of 6 replicates; controls 0 of 18)
* GNSLDDYGIS, VIYADGRRTMYAESVK, GQIAGSFFH = 30 nM (1 of 6 replicates; controls 0 of 18)
* GFDLNEYGIS, VIYADGRRTFYADSVK, GNVAGTFFE = 200 pM (6 of 6 replicates; controls 0 of 18)
* GADINEYGIS, VIYADGDRIAAQDDVK, GTNAGSFDI = nd (0 of 6 replicates; controls 0 of 18)
* GFDINEYGIS, VIYADGRRTQYADSVK, GEAAGTFDQ = 2.8 nM (6 of 6 replicates; controls 0 of 18)
* GFDLEEYGIS, VIYADGERVNYTEAVK, GQFSGVDMD = 450 pM (6 of 6 replicates; controls 0 of 18)
* GFDIDEYGIS, VIYADGTRTAYDNSFK, GQMAGFFTN = nd (0 of 6 replicates; controls 0 of 18)
* GFNIMEYGIS, VIYADGTRTAYANTVK, GKYVDTFVD = nd (0 of 6 replicates; controls 0 of 18)
* GFNLNEYGIS, VIYADGRRTFYTDDVK, GEMAGTFDL = 210 pM (6 of 6 replicates; controls 1 of 18)
* GFDLAEYGVS, VIYADGKRTAYADHVK, GENLGFFDL = 810 nM (1 of 6 replicates; controls 1 of 18)
* GFDLNEYGIS, VIYADGMRTFYADSVK, GNLAGTFDV = 360 pM (6 of 6 replicates; controls 0 of 18)
* GFDLESYGIS, VIYADGSRTAYADSVK, GNVAGTFTL = 390 pM (6 of 6 replicates; controls 0 of 18)
* GFTLDEYGIS, VIYADGRRTFYTDSVK, GNNAGTFDV = 170 pM (6 of 6 replicates; controls 1 of 18)
* GFDLNEYGIS, VIYADGRRTSYVDSVK, GQVAGTFNV = 470 pM (6 of 6 replicates; controls 0 of 18)
* GFQLDEYGIS, VIYADGVRSSYVDDVK, GEITGAFSV = nd (0 of 6 replicates; controls 0 of 18)
* GADLKEYGIS, VIYADGSRTAYSKNVK, GEFDDMVLV = nd (0 of 6 replicates; controls 0 of 18)
* GADINEYGIS, VIYADGNRIAYQDQVK, GNLAGSFDI = 48 nM (1 of 6 replicates; controls 0 of 18)
* GFKLDEYGIS, VIYADGVRAHYKDSVK, GVHQGYVVM = nd (0 of 6 replicates; controls 0 of 18)
* GFDLNEYGIS, VIYADGRRTYYVDSVK, GENAGTFDV = 75 pM (6 of 6 replicates; controls 0 of 18)
* GFDLNEYGIS, VIYADGMRTHYTDSVK, GNEAGTFDK = 3.0 nM (6 of 6 replicates; controls 0 of 18)
* GDGLQEYGIS, VIYADGFRTSYANDVK, GTAAGIFMV = nd (0 of 6 replicates; controls 0 of 18)
* GFDLNEYGIS, VIYADGMRTAYTDDVK, GENAGTFDV = 1.6 nM (6 of 6 replicates; controls 1 of 18)
* GFGLMEYGIS, VIYADGMRTSYANSFK, GAHAGTFDE = nd (0 of 6 replicates; controls 0 of 18)
* GFDLNEYGIS, VIYADGMRTAYADDVK, GNTAGTFDI = 300 pM (6 of 6 replicates; controls 0 of 18)
* GFDLNEYGIS, VIYADGVRTFYVDSVK, GQVAGTFNV = 250 pM (6 of 6 replicates; controls 0 of 18)
* GFGLDEYGIS, VIYADGFRAYYHDNVK, GFNSDVDIL = nd (0 of 6 replicates; controls 0 of 18)
* GFNLNEYGIS, VIYADGRRTFYADSVK, GGMAGTFDV = nd (0 of 6 replicates; controls 0 of 18)
* GFDLDEYGIS, VIYADGRRTAYTDSVK, GNVAGTFDL = 320 pM (6 of 6 replicates; controls 0 of 18)
* GNTLDEYGIS, VIYADGVRKAYINKFK, GMMTGTFDQ = 15 nM (1 of 6 replicates; controls 0 of 18)

Excerpt, the final 5 entries:

CDR-H1,CDR-H2,CDR-H3,apparent Kd,seen in,empty controls
GFDLNEYGIS,VIYADGVRTFYVDSVK,GQVAGTFNV,250 pM,6 of 6,0 of 18
GFGLDEYGIS,VIYADGFRAYYHDNVK,GFNSDVDIL,nd,0 of 6,0 of 18
GFNLNEYGIS,VIYADGRRTFYADSVK,GGMAGTFDV,nd,0 of 6,0 of 18
GFDLDEYGIS,VIYADGRRTAYTDSVK,GNVAGTFDL,320 pM,6 of 6,0 of 18
GNTLDEYGIS,VIYADGVRKAYINKFK,GMMTGTFDQ,15 nM,1 of 6,0 of 18